{"source": "patent US9408845B2", "about": "“Formulations containing pyridazine compounds” (Northwestern University, priority 2006, dated 2016)", "system": "nitric oxide (NO) production in BV-2 microglial cells", "experiment": "LPS-stimulated accumulation of nitrite (NO metabolite) in BV-2 cells, Griess assay", "format": "cell-based, mouse", "conditions": "same concentration range"}
{"smiles": "Cc1cc(-c2ccccc2)nnc1N1CCN(c2ncccn2)CC1", "note": "[MW01-2-151SRM, 4-methyl-6-phenyl-3-(4-pyrimidin-2-ylpiperazin-1-yl)pyridazine]", "values": [{"measurement": "selectivity (inhibits IL-1β but not production of NO, iNOS, COX-2)", "result": "selective"}]}
